# AlphaSeq binding of Ab-91 heavy chain variants to a spike HR2 peptide

The measurements come from Engelhart et al. 2022 (doi:10.1038/s41597-022-01779-4) through the FLAb antibody collection.

All variants were tested on one target, the spike HR2 peptide PDVDLGDISGINAS (SARS-CoV-2).

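Library AAYL51 holds single substitutions and randomly drawn double and triple substitutions in the CDRs. AlphaSeq pools MATa yeast showing the antibodies with MATalpha yeast showing the peptide. Binding brings cells together so that they mate, and sequencing counts the barcode pairs among the diploids. Scores were corrected for input abundance and mapped to Kd with protein pairs of known affinity run in the same pool. Mating was done three times.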

Each scFv is VL, a 15-residue (Gly4Ser)3 linker, VH, as in the parent Ab-91, and differs from it in the CDRs of the heavy chain only.
VL: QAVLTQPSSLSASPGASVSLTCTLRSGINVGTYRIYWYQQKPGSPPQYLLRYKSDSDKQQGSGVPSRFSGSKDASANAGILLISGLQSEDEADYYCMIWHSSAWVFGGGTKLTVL
VH: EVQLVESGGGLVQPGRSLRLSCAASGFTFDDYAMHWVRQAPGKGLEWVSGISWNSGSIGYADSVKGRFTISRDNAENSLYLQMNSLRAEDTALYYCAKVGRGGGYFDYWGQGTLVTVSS

Positions count from residue 1 of the parent VH; A33N puts N in place of A. This list gathers variants with a substitution at V64 (VH, numbered from residue 1). Each Kd is an estimate from the mating assay, the geometric mean of the replicates in which the pair was seen; lower is stronger. An entry "nd" has no value in the source: the pair was not observed among the diploids in any replicate. This suggests poor binding but is not conclusive.

- A33N V64R F106D = nd (0 of 3 replicates; controls 0 of 9)
- T28G V64L Y108A = 52 µM (1 of 3 replicates; controls 2 of 9)
- V64R G102I = nd (0 of 3 replicates; controls 0 of 9)
- V64M G102W = 59 µM (2 of 3 replicates; controls 3 of 9)
- A33Y N54I V64H = nd (0 of 3 replicates; controls 0 of 9)
- M34K G59F V64K = nd (0 of 3 replicates; controls 0 of 9)
- G50W V64C Y105K = nd (0 of 3 replicates; controls 0 of 9)
- S55T I58S V64M = nd (0 of 3 replicates; controls 0 of 9)
- F29M V64E V99S = nd (0 of 3 replicates; controls 0 of 9)
- M34Q V64I Y105A = 6.8 µM (1 of 3 replicates; controls 1 of 9)
- M34H V64T = nd (0 of 3 replicates; controls 2 of 9)
- F29I Y60T V64F = 50 nM (3 of 3 replicates; controls 3 of 9)
- Y32N V64E G104I = nd (0 of 3 replicates; controls 0 of 9)
- H35A S52T V64S = nd (0 of 3 replicates; controls 2 of 9)
- I51S S55Q V64P = 790 µM (1 of 3 replicates; controls 2 of 9)
- G50L S57D V64P = nd (0 of 3 replicates; controls 0 of 9)
- D62C V64T = nd (0 of 3 replicates; controls 0 of 9)
- N54Y V64D = nd (0 of 3 replicates; controls 1 of 9)
- F27Q G50L V64R = nd (0 of 3 replicates; controls 0 of 9)
- D30K G59N V64G = nd (0 of 3 replicates; controls 0 of 9)
- M34C V64S D107S = nd (0 of 3 replicates; controls 2 of 9)
- G26E D62W V64F = 300 µM (2 of 3 replicates; controls 1 of 9)
- G50W I51Y V64L = 160 µM (1 of 3 replicates; controls 0 of 9)
- D62E V64W V99W = 2.2 µM (3 of 3 replicates; controls 4 of 9)
- F27Q V64C = nd (0 of 3 replicates; controls 4 of 9)
- F27N V64H Y105P = nd (0 of 3 replicates; controls 1 of 9)
- Y32F S63R V64M = 390 nM (3 of 3 replicates; controls 0 of 9)
- Y60Q V64T F106S = 7.1 µM (3 of 3 replicates; controls 3 of 9)
- F29K V64G V99P = 38 µM (1 of 3 replicates; controls 2 of 9)
- A33V H35L V64H = nd (0 of 3 replicates; controls 0 of 9)
- I51P V64I G103C = 150 µM (2 of 3 replicates; controls 5 of 9)
- N54V V64Y Y105S = nd (0 of 3 replicates; controls 0 of 9)
- T28F D30I V64E = 180 µM (1 of 3 replicates; controls 3 of 9)
- D31K S52D V64L = 100 µM (2 of 3 replicates; controls 2 of 9)
- I51W S57W V64Y = 28 µM (3 of 3 replicates; controls 3 of 9)
- W53L V64T G104V = 62 µM (1 of 3 replicates; controls 0 of 9)
- S55A V64D Y105C = 88 µM (1 of 3 replicates; controls 5 of 9)
- Y32V D62N V64L = 2.4 µM (3 of 3 replicates; controls 1 of 9)
- Y32F V64K F106N = 120 µM (1 of 3 replicates; controls 3 of 9)
- Y32I S57F V64W = 680 nM (1 of 3 replicates; controls 0 of 9)
- V64W G100Y Y105C = nd (0 of 3 replicates; controls 1 of 9)
- D62P V64H Y105L = 1.1 µM (3 of 3 replicates; controls 3 of 9)
- S55T V64P = nd (0 of 3 replicates; controls 0 of 9)
- Y60W V64T G100S = 78 µM (2 of 3 replicates; controls 4 of 9)
- D30E V64H D107S = nd (0 of 3 replicates; controls 0 of 9)
- S55M V64M R101I = 11 µM (1 of 3 replicates; controls 3 of 9)
- G56H V64I R101H = 32 nM (3 of 3 replicates; controls 4 of 9)

Excerpt, the final 5 entries:

{"changes": "S55T V64P", "Kd": "nd", "detected": "0 of 3", "control signals": "0 of 9"}
{"changes": "Y60W V64T G100S", "Kd": "78 µM", "detected": "2 of 3", "control signals": "4 of 9"}
{"changes": "D30E V64H D107S", "Kd": "nd", "detected": "0 of 3", "control signals": "0 of 9"}
{"changes": "S55M V64M R101I", "Kd": "11 µM", "detected": "1 of 3", "control signals": "3 of 9"}
{"changes": "G56H V64I R101H", "Kd": "32 nM", "detected": "3 of 3", "control signals": "4 of 9"}

In this assay the parent's reference entry averaged 72 nM; its copy inside this library read 7.5 nM. Empty control strains, which show no peptide, gave a signal in 21% of pairings with library AAYL51; the median was 34 µM and 95% of these signals were weaker than 1.8 µM. No background was subtracted. The control count says in how many pairings with the empty strains this scFv gave a signal.